Measured values published in PubChem BioAssay AID1471 (National Center for Advancing Translational Sciences (NCATS), 2008).
The list shows a part of the results, in another mix than the full data. Calls of active or inactive are those of the source. Calls come from the whole dose curve; as a rule, active = well fitted activation curve with a large enough effect; inconclusive = small, poorly fitted or top-dose-only effect; inactive = no such curve, though single readings can be large or run the other way.

Assay: qHTS Multiplex Assay to Identify Dual Action Probes in a Cell Model of Huntington: Cytoprotection (ATP);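 note: toxic huntingtin expression switched on by the ecdysone agonist tebufenozide; % of control where 0% means no effect; nearly all actives have a fitted effect of over 45% in size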
Details: PC12 HTT-Q103 induced, ATP luminescence, 40 h; at 56.4 µM (top of the series)
From the text: NIH Chemical Genomics Center [NCGC]
NIH Molecular Libraries Probe Production centers Network [MLPCN]
Assay Submitter (PI): Wei Zheng
Huntington's disease is a neurodegenerative disorder caused by a trinucleotide repeat expansion in Exon 1 of the Huntingtin gene. The CAG trinucleotide encodes glutamine and polyglutamine expansions cause cell death in selective areas of the brain. Huntington polyglutamine repeats have the tendency to form aggregates which are observable in later stages of the disease. The exact nature of the aggregates, whether toxic, protective, or insignificant, is unclear.
A stable PC12 cell line containing a gene fusion of Exon 1 of the Huntingtin gene linked to GFP under the control of the inducible ecdysone promoter were used as the cell-based model of Huntington Disease for high throughput screening. Exon 1 of the Huntingtin gene contained an expansion of 103 polyglutamines (Q103) which, when expressed, caused cell death and distinct, bright GFP aggregates. […] The cell death were quantified with a measurement of ATP content in the cells. […]
We optimized this assay in a homogeneous 1536 well format. A quantitative high throughput screen (qHTS) was conducted on the PC12 cells which were induced to express the toxic fusion construct. Small molecules which prevented cell death were identified by using a luminescent ATP quantification method (Perkin Elmer's ATPlite). […]

Structure (SMILES) | cytoprotection (ATP increase)
CCN(CC)CCCOC(=O)C(O)(c1ccccc1)c1ccccc1 | inactive: -15.5%
